Reference: ChEMBL document CHEMBL3627674, “Discovery of wrightiadione as a novel template for the TrkA kinase inhibitors” (Bioorg Med Chem Lett, 2015)

The chains behind the UniProt entries cited, without tags or fusion partners. Where a name states a change or a piece, a line headed by the entry shows the natural chain unless it says otherwise.
UniProt P78368: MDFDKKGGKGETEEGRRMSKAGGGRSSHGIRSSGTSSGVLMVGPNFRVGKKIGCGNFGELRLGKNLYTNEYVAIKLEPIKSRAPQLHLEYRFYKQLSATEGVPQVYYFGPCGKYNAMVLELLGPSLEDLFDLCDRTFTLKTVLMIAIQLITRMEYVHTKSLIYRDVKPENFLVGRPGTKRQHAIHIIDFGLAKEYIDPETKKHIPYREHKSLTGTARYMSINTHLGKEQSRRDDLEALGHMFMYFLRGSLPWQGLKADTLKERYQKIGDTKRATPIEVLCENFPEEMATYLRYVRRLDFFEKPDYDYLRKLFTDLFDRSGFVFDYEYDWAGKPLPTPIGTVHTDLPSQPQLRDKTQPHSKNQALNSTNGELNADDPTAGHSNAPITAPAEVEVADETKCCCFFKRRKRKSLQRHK
UniProt P49137, whole entry, looked up: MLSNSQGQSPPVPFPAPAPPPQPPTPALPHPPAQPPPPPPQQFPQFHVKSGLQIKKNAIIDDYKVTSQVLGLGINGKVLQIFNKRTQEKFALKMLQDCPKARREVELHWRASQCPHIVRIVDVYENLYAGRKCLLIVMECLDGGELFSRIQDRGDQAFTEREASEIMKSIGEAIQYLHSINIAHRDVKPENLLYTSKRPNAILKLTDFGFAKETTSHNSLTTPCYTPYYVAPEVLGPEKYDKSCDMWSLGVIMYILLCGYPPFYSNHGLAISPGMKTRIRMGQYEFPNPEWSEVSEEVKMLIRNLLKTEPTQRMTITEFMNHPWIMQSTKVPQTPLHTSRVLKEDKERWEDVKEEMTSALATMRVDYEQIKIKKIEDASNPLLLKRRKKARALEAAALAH
UniProt P42336, whole entry: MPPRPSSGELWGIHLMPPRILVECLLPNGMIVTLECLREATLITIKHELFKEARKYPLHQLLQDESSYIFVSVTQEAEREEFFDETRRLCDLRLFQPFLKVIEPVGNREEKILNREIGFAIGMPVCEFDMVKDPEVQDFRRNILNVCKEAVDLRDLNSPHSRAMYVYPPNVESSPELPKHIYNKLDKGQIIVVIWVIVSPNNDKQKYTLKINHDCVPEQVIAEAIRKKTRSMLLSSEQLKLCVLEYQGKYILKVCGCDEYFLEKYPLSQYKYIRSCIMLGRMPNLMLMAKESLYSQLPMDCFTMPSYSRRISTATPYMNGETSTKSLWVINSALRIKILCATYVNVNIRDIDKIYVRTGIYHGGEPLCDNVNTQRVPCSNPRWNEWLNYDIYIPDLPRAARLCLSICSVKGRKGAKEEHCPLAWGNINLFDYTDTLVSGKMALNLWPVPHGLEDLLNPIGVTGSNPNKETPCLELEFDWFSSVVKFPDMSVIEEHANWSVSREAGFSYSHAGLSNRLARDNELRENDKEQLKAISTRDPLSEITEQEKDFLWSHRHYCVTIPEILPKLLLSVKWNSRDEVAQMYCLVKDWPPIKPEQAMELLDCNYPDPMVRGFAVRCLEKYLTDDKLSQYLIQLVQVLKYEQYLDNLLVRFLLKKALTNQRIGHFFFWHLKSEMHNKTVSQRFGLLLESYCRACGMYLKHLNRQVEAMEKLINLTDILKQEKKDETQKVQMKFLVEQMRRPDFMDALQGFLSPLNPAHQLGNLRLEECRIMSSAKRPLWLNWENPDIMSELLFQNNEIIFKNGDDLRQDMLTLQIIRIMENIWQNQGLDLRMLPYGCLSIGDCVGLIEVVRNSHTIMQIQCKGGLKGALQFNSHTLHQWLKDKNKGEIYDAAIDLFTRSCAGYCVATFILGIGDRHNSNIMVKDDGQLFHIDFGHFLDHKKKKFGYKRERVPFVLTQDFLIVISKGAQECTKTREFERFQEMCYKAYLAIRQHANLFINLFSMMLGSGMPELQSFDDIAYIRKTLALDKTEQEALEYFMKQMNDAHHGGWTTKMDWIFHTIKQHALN
UniProt P48736: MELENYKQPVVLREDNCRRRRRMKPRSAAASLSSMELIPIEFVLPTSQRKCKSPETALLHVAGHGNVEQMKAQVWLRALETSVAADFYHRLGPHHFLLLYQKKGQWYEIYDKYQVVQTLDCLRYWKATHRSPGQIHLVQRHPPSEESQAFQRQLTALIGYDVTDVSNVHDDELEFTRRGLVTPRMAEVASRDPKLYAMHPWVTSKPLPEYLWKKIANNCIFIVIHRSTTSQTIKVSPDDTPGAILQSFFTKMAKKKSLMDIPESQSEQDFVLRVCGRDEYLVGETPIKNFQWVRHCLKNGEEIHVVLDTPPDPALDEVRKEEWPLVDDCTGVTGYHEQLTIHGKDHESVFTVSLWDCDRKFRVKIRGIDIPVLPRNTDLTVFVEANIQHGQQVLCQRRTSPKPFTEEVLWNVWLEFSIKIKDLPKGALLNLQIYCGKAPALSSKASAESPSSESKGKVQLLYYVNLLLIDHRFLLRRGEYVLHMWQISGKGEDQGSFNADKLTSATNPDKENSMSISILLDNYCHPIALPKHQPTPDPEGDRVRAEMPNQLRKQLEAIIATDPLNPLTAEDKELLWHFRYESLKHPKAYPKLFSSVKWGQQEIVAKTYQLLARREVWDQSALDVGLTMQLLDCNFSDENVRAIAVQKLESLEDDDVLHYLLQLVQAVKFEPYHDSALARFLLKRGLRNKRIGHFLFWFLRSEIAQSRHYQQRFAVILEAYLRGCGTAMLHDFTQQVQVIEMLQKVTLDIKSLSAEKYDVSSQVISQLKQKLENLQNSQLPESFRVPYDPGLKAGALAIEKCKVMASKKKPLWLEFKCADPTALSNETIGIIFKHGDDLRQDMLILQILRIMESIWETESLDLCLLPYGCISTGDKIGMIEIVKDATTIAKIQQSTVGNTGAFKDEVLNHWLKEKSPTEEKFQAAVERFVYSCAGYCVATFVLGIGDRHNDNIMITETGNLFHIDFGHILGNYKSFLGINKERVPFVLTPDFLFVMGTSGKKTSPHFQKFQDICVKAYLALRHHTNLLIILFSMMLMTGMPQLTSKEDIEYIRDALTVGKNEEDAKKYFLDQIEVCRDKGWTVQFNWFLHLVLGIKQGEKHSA
UniProt P35968, whole entry: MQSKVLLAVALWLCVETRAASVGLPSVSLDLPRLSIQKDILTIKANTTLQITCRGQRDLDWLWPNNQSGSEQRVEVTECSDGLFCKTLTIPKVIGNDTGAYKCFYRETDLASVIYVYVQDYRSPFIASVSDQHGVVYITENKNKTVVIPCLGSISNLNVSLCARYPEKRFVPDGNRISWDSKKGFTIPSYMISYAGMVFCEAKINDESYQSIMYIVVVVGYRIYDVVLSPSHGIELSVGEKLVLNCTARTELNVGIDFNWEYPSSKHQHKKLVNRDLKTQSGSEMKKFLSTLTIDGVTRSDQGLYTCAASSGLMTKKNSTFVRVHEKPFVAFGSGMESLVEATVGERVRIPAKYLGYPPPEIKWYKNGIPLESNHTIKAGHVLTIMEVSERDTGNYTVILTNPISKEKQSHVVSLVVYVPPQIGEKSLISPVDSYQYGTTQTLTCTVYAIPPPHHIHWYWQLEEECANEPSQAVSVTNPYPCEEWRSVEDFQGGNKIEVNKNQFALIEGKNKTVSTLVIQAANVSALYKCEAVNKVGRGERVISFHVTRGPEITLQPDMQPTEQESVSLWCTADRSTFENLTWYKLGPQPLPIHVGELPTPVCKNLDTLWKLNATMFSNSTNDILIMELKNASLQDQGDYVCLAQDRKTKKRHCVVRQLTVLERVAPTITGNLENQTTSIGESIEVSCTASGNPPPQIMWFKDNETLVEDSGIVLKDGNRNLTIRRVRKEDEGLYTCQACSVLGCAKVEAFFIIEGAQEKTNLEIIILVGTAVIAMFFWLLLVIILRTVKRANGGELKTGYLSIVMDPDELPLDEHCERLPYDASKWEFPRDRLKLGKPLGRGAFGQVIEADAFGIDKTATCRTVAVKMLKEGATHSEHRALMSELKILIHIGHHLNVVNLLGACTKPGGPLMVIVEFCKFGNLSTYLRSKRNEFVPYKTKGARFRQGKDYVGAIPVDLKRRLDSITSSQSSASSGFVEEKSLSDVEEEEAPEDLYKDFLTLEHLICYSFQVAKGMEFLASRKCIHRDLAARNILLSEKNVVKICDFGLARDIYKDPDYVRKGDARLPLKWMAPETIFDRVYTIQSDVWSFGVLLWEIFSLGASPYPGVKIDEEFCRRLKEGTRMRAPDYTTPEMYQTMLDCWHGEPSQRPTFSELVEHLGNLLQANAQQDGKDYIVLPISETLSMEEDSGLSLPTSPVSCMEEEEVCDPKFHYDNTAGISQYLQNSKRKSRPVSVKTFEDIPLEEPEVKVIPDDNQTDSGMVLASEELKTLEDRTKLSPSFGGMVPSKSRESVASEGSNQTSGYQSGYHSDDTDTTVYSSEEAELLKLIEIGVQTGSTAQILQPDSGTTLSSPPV

Assays:
[1] = target: Casein kinase I isoform gamma-2 (Homo sapiens) (UniProt P78368); experiment: Inhibition of CSNK1G2 (unknown origin) assessed as remaining activity at 10 uM by high-throughput assay relative to control
[2] = target: T1, Serine/threonine-protein kinase STK11 (Homo sapiens) (UniProt Q15831); experiment: Inhibition of LKB1 (unknown origin) assessed as remaining activity at 10 uM by high-throughput assay relative to control
T1 sequence (whole entry): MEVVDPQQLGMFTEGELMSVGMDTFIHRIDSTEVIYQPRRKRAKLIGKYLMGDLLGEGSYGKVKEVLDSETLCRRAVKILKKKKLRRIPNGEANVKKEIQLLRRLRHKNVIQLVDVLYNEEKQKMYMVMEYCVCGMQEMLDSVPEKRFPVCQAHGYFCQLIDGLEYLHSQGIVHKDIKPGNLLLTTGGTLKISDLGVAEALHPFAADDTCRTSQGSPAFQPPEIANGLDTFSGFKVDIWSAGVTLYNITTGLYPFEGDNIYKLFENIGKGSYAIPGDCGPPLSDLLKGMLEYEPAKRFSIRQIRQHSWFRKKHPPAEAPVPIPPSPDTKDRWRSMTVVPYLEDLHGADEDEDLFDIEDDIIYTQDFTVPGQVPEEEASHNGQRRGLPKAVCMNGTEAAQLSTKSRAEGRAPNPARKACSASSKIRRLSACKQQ

[3] = target: MAP kinase-activated protein kinase 2 (Homo sapiens) (UniProt P49137); experiment: Inhibition of MAPKAPK2 (unknown origin) assessed as remaining activity at 10 uM by high-throughput assay relative to control
[4] = target: Phosphatidylinositol 4,5-bisphosphate 3-kinase catalytic subunit alpha isoform (Homo sapiens) (UniProt P42336); experiment: Inhibition of PIK3CA (unknown origin) assessed as remaining activity at 10 uM by high-throughput assay relative to control
[5] = target: Phosphatidylinositol 4,5-bisphosphate 3-kinase catalytic subunit gamma isoform (Homo sapiens) (UniProt P48736); experiment: Inhibition of PIK3CG (unknown origin) assessed as remaining activity at 10 uM by high-throughput assay relative to control
[6] = target: T2, TGF-beta receptor type-1 (Homo sapiens) (UniProt P36897); experiment: Inhibition of TGFBR1 (unknown origin) assessed as remaining activity at 10 uM by high-throughput assay relative to control
T2 sequence (whole entry): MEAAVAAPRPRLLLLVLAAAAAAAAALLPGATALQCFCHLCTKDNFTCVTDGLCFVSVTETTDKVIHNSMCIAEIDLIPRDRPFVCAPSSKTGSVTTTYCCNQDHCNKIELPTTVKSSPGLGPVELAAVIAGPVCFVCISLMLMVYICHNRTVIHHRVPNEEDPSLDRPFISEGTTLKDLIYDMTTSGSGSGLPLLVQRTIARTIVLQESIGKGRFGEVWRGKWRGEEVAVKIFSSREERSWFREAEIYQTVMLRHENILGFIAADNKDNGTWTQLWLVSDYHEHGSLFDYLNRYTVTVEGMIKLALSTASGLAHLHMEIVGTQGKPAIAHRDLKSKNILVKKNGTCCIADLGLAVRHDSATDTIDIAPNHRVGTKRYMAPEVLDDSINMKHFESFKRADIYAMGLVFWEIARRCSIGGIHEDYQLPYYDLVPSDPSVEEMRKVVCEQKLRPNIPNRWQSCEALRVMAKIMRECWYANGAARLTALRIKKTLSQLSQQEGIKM

[7] = target: Vascular endothelial growth factor receptor 2 (Homo sapiens) (UniProt P35968); experiment: Inhibition of VEGFR2 (unknown origin) assessed as remaining activity at 10 uM by high-throughput assay relative to control
AKT1 (Homo sapiens) = experiment: Inhibition of AKT1 (unknown origin) assessed as remaining activity at 10 uM by high-throughput assay relative to control
AKT2 (Homo sapiens) = experiment: Inhibition of AKT2 (unknown origin) assessed as remaining activity at 10 uM by high-throughput assay relative to control
IGF1R (Homo sapiens) = experiment: Inhibition of IGF1R (unknown origin) assessed as remaining activity at 10 uM by high-throughput assay relative to control

Activity [1]: 81%
Activity [2]: 88%
Activity [3]: 88%
Activity [4]: 81%
Activity [5]: 86%
Activity [6]: 81%
Activity [7]: 88%
Activity (AKT1 (Homo sapiens)): 88%
Activity (AKT2 (Homo sapiens)): 81%
Activity (IGF1R (Homo sapiens)): 86%
Structure (SMILES): O=C1c2ccccc2-c2c1oc1ccccc1c2=O
